Amino acid sequences for entries named in this document (tags omitted). Residues count along the entry.
UniProt Q9P286, whole entry: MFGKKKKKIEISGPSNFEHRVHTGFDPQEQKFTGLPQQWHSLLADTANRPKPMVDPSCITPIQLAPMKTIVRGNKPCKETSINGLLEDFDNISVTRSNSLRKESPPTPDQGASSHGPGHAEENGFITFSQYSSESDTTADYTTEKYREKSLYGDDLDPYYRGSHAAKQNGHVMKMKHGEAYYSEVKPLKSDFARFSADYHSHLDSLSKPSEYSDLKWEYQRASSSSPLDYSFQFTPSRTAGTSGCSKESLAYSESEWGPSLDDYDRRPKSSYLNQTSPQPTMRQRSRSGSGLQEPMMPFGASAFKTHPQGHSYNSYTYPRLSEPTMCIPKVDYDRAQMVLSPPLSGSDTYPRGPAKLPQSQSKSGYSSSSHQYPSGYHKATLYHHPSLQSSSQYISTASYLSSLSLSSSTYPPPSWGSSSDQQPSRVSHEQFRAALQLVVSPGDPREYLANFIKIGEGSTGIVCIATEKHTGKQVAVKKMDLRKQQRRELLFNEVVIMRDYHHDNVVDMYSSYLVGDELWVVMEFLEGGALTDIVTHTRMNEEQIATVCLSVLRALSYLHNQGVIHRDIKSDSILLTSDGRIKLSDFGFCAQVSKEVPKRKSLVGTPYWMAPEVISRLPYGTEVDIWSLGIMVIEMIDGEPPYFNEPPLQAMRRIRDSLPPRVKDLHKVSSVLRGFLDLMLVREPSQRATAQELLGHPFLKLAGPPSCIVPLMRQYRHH
UniProt Q9UQM7, whole entry: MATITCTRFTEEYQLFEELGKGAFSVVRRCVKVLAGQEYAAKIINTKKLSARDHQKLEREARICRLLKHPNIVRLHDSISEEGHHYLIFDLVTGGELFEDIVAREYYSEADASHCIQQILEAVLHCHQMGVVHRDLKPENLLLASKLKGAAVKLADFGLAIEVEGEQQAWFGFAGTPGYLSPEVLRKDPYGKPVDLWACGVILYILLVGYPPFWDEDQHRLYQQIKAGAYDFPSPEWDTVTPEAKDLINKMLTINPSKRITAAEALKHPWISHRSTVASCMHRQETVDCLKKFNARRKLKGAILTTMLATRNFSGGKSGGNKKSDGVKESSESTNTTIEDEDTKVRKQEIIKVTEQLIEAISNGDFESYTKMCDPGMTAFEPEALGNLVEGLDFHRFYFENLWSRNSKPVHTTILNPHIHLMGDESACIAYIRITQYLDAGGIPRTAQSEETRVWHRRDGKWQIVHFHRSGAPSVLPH
UniProt P54646, whole entry: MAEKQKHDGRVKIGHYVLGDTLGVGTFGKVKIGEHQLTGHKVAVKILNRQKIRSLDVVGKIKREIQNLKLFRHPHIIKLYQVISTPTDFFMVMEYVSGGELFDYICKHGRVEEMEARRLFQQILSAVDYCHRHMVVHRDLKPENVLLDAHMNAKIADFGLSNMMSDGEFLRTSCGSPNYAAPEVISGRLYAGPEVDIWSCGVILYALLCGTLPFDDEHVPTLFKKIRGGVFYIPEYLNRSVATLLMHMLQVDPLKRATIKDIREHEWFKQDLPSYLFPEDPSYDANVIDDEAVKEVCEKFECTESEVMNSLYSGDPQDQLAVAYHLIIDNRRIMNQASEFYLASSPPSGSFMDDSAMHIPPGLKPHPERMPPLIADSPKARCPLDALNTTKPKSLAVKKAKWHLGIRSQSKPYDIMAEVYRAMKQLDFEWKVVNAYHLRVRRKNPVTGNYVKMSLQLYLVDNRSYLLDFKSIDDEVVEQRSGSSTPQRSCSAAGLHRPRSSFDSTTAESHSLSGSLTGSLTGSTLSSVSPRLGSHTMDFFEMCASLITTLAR
UniProt Q9P1W9, whole entry: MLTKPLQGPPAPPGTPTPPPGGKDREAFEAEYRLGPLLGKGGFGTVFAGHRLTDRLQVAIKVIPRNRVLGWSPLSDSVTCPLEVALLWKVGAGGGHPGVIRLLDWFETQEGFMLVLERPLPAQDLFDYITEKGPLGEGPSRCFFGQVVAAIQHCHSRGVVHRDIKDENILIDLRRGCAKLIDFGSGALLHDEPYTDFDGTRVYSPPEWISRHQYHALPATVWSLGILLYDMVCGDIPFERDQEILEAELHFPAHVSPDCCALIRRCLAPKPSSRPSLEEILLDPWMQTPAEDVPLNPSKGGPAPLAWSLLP
UniProt P49840, whole entry: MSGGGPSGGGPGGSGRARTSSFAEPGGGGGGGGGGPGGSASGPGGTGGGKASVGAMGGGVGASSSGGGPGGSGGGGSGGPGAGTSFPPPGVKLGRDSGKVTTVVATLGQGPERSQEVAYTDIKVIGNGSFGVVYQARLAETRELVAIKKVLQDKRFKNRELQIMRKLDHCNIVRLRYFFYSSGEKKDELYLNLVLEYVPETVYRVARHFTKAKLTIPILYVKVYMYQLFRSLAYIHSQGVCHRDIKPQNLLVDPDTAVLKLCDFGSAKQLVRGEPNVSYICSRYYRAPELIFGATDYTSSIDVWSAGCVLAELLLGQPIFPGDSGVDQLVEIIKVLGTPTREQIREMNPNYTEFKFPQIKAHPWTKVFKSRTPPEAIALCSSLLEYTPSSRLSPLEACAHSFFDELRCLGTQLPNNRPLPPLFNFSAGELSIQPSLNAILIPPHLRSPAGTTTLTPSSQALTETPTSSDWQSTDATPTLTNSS
UniProt Q13131, whole entry: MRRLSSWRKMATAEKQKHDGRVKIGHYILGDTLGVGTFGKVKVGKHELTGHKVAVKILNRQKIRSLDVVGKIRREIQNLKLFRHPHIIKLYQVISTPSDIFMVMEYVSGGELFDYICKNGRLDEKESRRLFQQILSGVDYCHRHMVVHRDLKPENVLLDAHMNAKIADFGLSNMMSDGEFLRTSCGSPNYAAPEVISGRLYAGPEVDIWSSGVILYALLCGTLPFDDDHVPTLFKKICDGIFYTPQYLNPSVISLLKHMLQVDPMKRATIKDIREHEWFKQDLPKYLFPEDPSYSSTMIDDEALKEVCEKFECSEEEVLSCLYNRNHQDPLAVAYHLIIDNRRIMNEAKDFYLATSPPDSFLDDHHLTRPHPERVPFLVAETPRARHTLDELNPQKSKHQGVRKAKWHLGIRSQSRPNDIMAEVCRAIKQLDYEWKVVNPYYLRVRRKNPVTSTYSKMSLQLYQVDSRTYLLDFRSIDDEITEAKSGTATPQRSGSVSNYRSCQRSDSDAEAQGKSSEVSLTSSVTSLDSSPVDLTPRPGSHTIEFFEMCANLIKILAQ
UniProt P35626, whole entry: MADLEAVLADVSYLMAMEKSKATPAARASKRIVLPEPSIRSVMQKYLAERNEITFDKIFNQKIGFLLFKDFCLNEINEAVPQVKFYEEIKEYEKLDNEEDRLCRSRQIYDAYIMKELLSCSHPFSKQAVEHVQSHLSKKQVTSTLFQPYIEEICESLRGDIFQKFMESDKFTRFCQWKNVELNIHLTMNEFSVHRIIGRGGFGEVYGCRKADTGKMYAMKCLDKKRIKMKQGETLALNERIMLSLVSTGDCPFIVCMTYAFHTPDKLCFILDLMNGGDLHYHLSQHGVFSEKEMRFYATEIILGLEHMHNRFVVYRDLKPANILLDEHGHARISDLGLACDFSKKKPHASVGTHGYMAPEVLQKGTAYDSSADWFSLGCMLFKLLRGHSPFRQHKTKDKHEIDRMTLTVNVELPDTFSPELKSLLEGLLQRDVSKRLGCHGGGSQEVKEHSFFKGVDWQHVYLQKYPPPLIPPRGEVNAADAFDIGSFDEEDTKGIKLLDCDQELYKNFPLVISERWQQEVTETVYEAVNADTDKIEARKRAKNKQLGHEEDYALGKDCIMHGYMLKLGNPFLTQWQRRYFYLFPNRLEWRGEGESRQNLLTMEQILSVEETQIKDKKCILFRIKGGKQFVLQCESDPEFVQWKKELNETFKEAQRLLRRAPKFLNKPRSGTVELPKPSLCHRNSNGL
UniProt Q9UM73, 19-1620 limits assumed: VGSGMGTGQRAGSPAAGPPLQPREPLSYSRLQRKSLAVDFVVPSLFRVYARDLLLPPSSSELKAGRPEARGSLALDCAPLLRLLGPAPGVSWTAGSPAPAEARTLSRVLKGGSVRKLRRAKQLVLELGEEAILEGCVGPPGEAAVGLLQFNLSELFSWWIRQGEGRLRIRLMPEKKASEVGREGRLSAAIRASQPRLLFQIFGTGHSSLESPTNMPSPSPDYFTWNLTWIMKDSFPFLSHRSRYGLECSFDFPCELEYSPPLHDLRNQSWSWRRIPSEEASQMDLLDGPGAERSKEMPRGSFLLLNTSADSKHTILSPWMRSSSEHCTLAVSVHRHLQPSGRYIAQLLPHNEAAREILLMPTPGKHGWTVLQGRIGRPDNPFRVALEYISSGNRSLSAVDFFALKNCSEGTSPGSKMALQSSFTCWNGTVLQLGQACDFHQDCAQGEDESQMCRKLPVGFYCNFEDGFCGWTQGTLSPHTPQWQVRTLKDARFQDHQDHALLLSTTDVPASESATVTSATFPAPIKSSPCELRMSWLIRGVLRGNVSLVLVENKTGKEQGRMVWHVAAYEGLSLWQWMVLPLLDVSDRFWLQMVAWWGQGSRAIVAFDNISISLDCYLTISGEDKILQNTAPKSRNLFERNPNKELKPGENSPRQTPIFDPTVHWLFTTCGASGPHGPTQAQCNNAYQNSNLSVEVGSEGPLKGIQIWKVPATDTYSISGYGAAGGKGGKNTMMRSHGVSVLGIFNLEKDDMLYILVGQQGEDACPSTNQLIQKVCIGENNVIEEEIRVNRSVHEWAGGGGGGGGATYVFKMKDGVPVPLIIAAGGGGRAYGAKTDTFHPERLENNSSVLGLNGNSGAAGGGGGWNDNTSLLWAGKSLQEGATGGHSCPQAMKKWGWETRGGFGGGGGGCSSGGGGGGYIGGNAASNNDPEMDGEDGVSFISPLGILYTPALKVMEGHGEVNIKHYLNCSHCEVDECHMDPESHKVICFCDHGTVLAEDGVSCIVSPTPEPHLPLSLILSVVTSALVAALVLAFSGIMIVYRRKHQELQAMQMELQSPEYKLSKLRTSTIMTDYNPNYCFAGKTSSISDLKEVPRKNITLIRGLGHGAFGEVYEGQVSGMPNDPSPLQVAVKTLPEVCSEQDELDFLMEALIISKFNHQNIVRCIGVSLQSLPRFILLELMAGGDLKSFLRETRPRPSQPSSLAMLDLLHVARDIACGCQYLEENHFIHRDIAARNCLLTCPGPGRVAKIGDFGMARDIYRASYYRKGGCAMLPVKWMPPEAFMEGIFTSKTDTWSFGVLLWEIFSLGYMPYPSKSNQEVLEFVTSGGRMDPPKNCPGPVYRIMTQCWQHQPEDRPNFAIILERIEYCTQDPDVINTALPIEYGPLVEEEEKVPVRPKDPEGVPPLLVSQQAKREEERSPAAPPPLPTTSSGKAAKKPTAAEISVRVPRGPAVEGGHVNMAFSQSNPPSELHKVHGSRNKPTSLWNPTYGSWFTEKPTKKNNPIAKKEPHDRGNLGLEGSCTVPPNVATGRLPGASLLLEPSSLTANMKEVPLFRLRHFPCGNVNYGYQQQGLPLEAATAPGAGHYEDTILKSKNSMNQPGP
UniProt P42684, whole entry: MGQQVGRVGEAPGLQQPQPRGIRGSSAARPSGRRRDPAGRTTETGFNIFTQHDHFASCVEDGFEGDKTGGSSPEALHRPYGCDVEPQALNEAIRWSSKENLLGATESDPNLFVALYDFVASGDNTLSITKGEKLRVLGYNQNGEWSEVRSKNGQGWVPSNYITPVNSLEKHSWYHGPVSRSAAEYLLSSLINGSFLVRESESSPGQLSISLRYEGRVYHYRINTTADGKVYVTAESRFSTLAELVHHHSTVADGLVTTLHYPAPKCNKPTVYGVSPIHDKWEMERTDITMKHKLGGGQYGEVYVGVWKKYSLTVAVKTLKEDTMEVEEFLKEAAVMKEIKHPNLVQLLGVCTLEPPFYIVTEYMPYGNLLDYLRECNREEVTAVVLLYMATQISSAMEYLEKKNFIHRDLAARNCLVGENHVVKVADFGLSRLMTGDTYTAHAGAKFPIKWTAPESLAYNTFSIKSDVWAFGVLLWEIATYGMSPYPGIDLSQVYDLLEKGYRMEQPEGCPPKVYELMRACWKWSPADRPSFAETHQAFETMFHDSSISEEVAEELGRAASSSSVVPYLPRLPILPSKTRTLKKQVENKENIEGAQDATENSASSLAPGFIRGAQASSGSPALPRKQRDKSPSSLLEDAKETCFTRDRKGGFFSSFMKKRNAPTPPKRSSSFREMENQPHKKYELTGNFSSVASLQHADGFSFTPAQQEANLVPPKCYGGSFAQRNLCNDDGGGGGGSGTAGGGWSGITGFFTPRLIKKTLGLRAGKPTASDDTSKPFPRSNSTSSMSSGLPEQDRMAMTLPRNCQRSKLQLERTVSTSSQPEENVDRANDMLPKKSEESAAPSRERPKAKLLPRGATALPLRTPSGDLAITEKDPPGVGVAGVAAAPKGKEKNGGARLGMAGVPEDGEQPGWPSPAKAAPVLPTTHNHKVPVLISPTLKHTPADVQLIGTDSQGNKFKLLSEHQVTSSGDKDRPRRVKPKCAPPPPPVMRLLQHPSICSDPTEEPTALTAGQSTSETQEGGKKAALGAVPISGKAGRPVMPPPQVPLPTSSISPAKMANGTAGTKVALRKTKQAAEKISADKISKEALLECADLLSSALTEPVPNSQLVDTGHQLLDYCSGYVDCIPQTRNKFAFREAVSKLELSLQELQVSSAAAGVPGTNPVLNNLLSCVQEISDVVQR

According to patent US20260384438A1, “PYRROLOPYRIMIDINE CARBOXAMIDES” (published 2026):

Key:
Assay in all cases: Kinase profiling, Z-Lyte
PAK7 (KIAA1264) = PAK7 (KIAA1264) (Homo sapiens, UniProt Q9P286); conditions: 1 μM, KmATP
AKT1 (PKB alpha) = AKT1 (PKB alpha) (Homo sapiens, UniProt P31749); conditions: 1 μM, KmATP
ITK = ITK (Homo sapiens, UniProt Q08881); conditions: 1 μM, KmATP
MYLK2 = MYLK2 (Homo sapiens, UniProt Q9H1R3); conditions: 1 μM, KmATP
PHKG2 = PHKG2 (Homo sapiens, UniProt P15735); conditions: 1 μM, KmATP
FER = FER (Homo sapiens, UniProt P16591); conditions: 1 μM, KmATP
EPHA5 = EPHA5 (Homo sapiens, UniProt P54756); conditions: 1 μM, KmATP
CAMK2A = CAMK2A (Homo sapiens, UniProt Q9UQM7); conditions: 1 μM, KmATP
AMPK A2/B2/G3 = AMPK A2/B2/G3 (Homo sapiens, UniProt P54646); conditions: 1 μM, KmATP
DYRK1A = DYRK1A (Homo sapiens, UniProt Q13627); conditions: 1 μM, KmATP
MARK4 = MARK4 (Homo sapiens, UniProt Q96L34); conditions: 1 μM, KmATP
SRMS (Srm) = SRMS (Srm) (Homo sapiens, UniProt Q9H3Y6); conditions: 1 μM, KmATP
PIM2 = PIM2 (Homo sapiens, UniProt Q9P1W9); conditions: 1 μM, KmATP
DYRK1B = DYRK1B (Homo sapiens, UniProt Q9Y463)
AMPK A2/B1/G2 = AMPK A2/B1/G2 (Homo sapiens, UniProt P54646); conditions: 1 μM, KmATP
STK25 (YSK1) = STK25 (YSK1) (Homo sapiens, UniProt O00506); conditions: 1 μM, KmATP
PAK1 = PAK1 (Homo sapiens, UniProt Q13153); conditions: 1 μM, KmATP
STK23 (MSSK1) = STK23 (MSSK1) (Homo sapiens, UniProt Q9UPE1); conditions: 1 μM, KmATP
TAOK2 (TAO1) = TAOK2 (TAO1) (Homo sapiens, UniProt Q9UL54); conditions: 1 μM, KmATP
PRKG2 (PKG2) = PRKG2 (PKG2) (Homo sapiens, UniProt Q13237); conditions: 1 μM, KmATP
PRKCG (PKC gamma) = PRKCG (PKC gamma) (Homo sapiens, UniProt P05129); conditions: 1 μM, KmATP
PRKCN (PKD3) = PRKCN (PKD3) (Homo sapiens, UniProt O94806); conditions: 1 μM, KmATP
CSNK1G1 (CK1gamma1) = CSNK1G1 (CK1gamma1) (Homo sapiens, UniProt Q9HCP0); conditions: 1 μM, KmATP
PAK6 = PAK6 (Homo sapiens, UniProt Q9NQU5); conditions: 1 μM, KmATP
GSK3A = GSK3A (Homo sapiens, UniProt P49840); conditions: 1 μM, KmATP
EPHA2 = EPHA2 (Homo sapiens, UniProt P29317)
DNA-PK = DNA-PK (Homo sapiens, UniProt P78527); conditions: 1 μM, KmATP
MARK3 = MARK3 (Homo sapiens, UniProt P27448); conditions: 1 μM, KmATP
JAK2 = JAK2 (Homo sapiens, UniProt O60674); conditions: 1 μM, KmATP
PHKG1 = PHKG1 (Homo sapiens, UniProt Q16816); conditions: 1 μM, KmATP
PIM3 = PIM3 (Homo sapiens, UniProt Q86V86); conditions: 1 μM, KmATP
JAK2 JH1 JH2 = JAK2 JH1 JH2 (Homo sapiens, UniProt O60674); conditions: 1 μM, KmATP
RPS6KA6 (RSK4) = RPS6KA6 (RSK4) (Homo sapiens, UniProt Q9UK32); conditions: 1 μM, KmATP
BLK = BLK (Homo sapiens, UniProt P51451); conditions: 1 μM, KmATP
AMPK A1/B1/G1 = AMPK A1/B1/G1 (Homo sapiens, UniProt Q13131); conditions: 1 μM, KmATP
FLT3 Hu Phos = FLT3 Hu Phos (Homo sapiens, UniProt P36888); conditions: 1 μM, KmATP
ADRBK2 (GRK3) = ADRBK2 (GRK3) (Homo sapiens, UniProt P35626); conditions: 1 μM, KmATP
ALK = ALK (Homo sapiens, UniProt Q9UM73); conditions: 1 μM, KmATP
ABL2 (Arg) = ABL2 (Arg) (Homo sapiens, UniProt P42684)

Cc1nc(C(F)(F)F)c2c(C(N)=O)c(N)n(-c3c(C)ccc(O)c3C)c2n1 (single isomer, unassigned)
MEAN INHIBITION (PAK7 (KIAA1264)): 1.008% | MEAN INHIBITION (AKT1 (PKB alpha)): 1.061% | MEAN INHIBITION (ITK): 15.820% | MEAN INHIBITION (MYLK2): 0.373% | MEAN INHIBITION (PHKG2): 0.872% | MEAN INHIBITION (FER): 3.350% | MEAN INHIBITION (EPHA5): 44.210% | MEAN INHIBITION (CAMK2A): 2.396% | MEAN INHIBITION (AMPK A2/B2/G3): 2.185% | MEAN INHIBITION (DYRK1A): 21.554% | MEAN INHIBITION (MARK4): 2.379% | MEAN INHIBITION (SRMS (Srm)): 27.698% | MEAN INHIBITION (PIM2): 2.302% | MEAN INHIBITION (DYRK1B; 1 μM, KmATP): 54.239% | IC50 (DYRK1B; 10-point CR, ATP 75.000 μM): 614 nM | MEAN INHIBITION (AMPK A2/B1/G2): 13.352% | MEAN INHIBITION (STK25 (YSK1)): 1.849% | MEAN INHIBITION (PAK1): 4.877% | MEAN INHIBITION (STK23 (MSSK1)): 1.780% | MEAN INHIBITION (TAOK2 (TAO1)): −1.299% | MEAN INHIBITION (PRKG2 (PKG2)): 2.847% | MEAN INHIBITION (PRKCG (PKC gamma)): −5.908% | MEAN INHIBITION (PRKCN (PKD3)): 8.236% | MEAN INHIBITION (CSNK1G1 (CK1gamma1)): −2.320% | MEAN INHIBITION (PAK6): 1.993% | MEAN INHIBITION (GSK3A): 25.607% | MEAN INHIBITION (EPHA2; 1 μM, KmATP): 59.273% | IC50 (EPHA2; 10-point CR, ATP 75.000 μM): 451 nM | MEAN INHIBITION (DNA-PK): 2.292% | MEAN INHIBITION (MARK3): 7.414% | MEAN INHIBITION (JAK2): 3.492% | MEAN INHIBITION (PHKG1): 3.453% | MEAN INHIBITION (PIM3): 0.696% | MEAN INHIBITION (JAK2 JH1 JH2): 0.927% | MEAN INHIBITION (RPS6KA6 (RSK4)): 14.718% | MEAN INHIBITION (BLK): 34.144% | MEAN INHIBITION (AMPK A1/B1/G1): 6.558% | MEAN INHIBITION (FLT3 Hu Phos): 6.895% | MEAN INHIBITION (ADRBK2 (GRK3)): 3.532% | MEAN INHIBITION (ALK): 6.004% | MEAN INHIBITION (ABL2 (Arg); 1 μM, KmATP): 74.616% | IC50 (ABL2 (Arg); 10-point CR, ATP 25.000 μM): 208 nM
